Values of other authors as cited in patent US20060099157A1, “Ether alcohols used as solvents and emulsifiers and dispersions containing said ether alcohols” (IFAC GmbH & Co. KG, priority 2002, published 2006).

Conditions: cited from earlier work

For `CCCCC(CC)COC(=O)c1ccc(Nc2nc(Nc3ccc(C(=O)OCC(CC)CCCC)cc3)nc(Nc3ccc(C(=O)OCC(CC)CCCC)cc3)n2)cc1` (centres unmarked) [2,4,6-trianilino-p-(carbo-2′-ethylhexyl-1′-oxy)-1,3,5-triazine], the “solubility in C12-C15-alcohol benzoate” value (hitherto found) is listed as “about 4%” and the “solubility in customary oils” value (hitherto, PPG-3 myristyl ether) is listed as “at most 13%”.
